Data published in IntAct's records for PubMed 25684577.

B1: E3 ubiquitin-protein ligase CHIP (Homo sapiens), Q9UNE7-1 (parent)
chain: MKGKEEKEGGARLGAGGGSPEKSPSAQELKEQGNRLFVGRKYPEAAACYGRAITRNPLVAVYYTNRALCYLKMQQHEQALADCRRALELDGQSVKAHFFLGQCQLEMESYDEAIANLQRAYSLAKEQRLNFGDDIPSALRIAKKKRWNSIEERRIHQESELHSYLSRLIAAERERELEECQRNHEGDEDDSHVRAQQACIEAKHDKYMADMDELFSQVDEKRKKRDIPDYLCGKISFELMREPCITPSGITYDRKDIEEHLQRVGHFDPVTRSPLTQEQLIPNLAMKEVIDAFISENGWVEDY

Variants of: B1
Details: with p11142-1 HSPA8, P11142-1

Variant | effect of a mutation on the interaction
V59D;L129D | disrupting interaction strength
